# Yeast mating assay 2: variants of the scFv Ab-95

Data: MIT Lincoln Laboratory AlphaSeq set, Engelhart et al. 2022, doi:10.1038/s41597-022-01779-4, as distributed in FLAb.

All variants were tested on one target, the spike HR2 peptide PDVDLGDISGINAS (SARS-CoV-2).

Parent scFv Ab-95: VH joined to VL by the linker GGGGSGGGGSGGGGS. Changes lie in the light chain CDRs alone.
VH: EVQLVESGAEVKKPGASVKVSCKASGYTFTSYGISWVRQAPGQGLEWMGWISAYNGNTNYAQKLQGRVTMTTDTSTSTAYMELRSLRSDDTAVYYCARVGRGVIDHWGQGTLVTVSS
VL: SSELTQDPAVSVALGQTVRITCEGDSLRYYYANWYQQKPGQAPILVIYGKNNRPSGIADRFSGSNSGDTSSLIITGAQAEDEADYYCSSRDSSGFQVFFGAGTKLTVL

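The starting antibody came from a phage panning campaign against this peptide. The library (AAYL52) carries one to three amino acid substitutions per variant, with no insertions or deletions. The assay is AlphaSeq: two haploid yeast populations carry antibody and antigen on their surface. After mating in shaken culture at 30 °C for 16 h, diploids were selected and their barcode pairs sequenced. Each replicate has its own calibration line, from reference interactions of the BCL2 family. Each pool was mated in three replicate cultures.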

Each variant is given by its three light chain CDRs, as the data file delimits them; those of the parent are EGDSLRYYYAN, GKNNRPS, SSRDSSGFQVF. Every variant below is changed at G49 of the VL (sequential numbering). Kd is apparent (estimated from mating counts) and averaged on the log scale over replicates with a signal. Smaller is tighter. "nd" means that the variant was in the library but no mating with the target was seen in any replicate; the authors take this as a sign of poor binding, and no number exists.

| CDR-L1 | CDR-L2 | CDR-L3 | Kd (apparent) | seen in |
|---|---|---|---|---|
| EGDSLRYYYAN | LKNNRNS | SSRDSSGFQVN | nd | 0 of 3 |
| KGDSLRYYYAN | SKNNLPS | SSRDSSGFQVF | 670 nM | 3 of 3 |
| EGDSLRYYYAN | WKWNRPS | SSRDSSGFQVF | 15 µM | 2 of 3 |
| EGDSLRYYYAN | NKNNRPR | SSRDSSGYQVF | 1.2 µM | 3 of 3 |
| EGDSLRYGYAN | APNNRPS | SSRDSSGFQVF | 110 nM | 3 of 3 |
| EWDSLRYYYAN | NKNNRPS | SSRDSSGFQFF | nd | 0 of 3 |
| EGDSLRYIYAN | TKNNRPS | SSRDTSGFQVF | 3.7 µM | 2 of 3 |
| EGDSLRYYKAN | SKNNRPS | SSRDSSGFQVG | 13 µM | 3 of 3 |
| EGDSLRYYYAN | IKNNRPS | SSRDSSGFQVF | 25 µM | 2 of 3 |
| EGDSLRYYYRN | SKNNRPS | SSRDSPGFQVF | 4.0 µM | 3 of 3 |
| EGDSLRYYYTN | SKNNRPS | SSRDSSGFQVF | nd | 0 of 3 |
| EGDSLRYYYMN | KKNNRPS | SSRDSSGFQVF | nd | 0 of 3 |
| EGDSLRYYYAN | YQNNRPS | SSRDSSGCQVF | 53 µM | 3 of 3 |
| EGDSLRYYYAN | PKNNRPD | SSRDSSGFQVL | 25 µM | 1 of 3 |
| EGDSLRYYYFN | YKNNRPS | SSRDSPGFQVF | 34 µM | 2 of 3 |
| EGDSLRYYHAN | LKNNRPS | SSRDSSGFHVF | 7.6 µM | 1 of 3 |
| EGDSLRYYYAW | RKNNRPK | SSRDSSGFQVF | nd | 0 of 3 |
| EGDLLRYYYAN | AKNNRPS | SSRDSSGFQCF | 69 µM | 3 of 3 |
| EGDSLRYCYAN | EKNNRPS | SSRDSSGFQVF | 3.7 µM | 3 of 3 |
| EGFSLRYYYAN | KKNNRPH | SSRDSSGFQVF | 46 µM | 2 of 3 |
| EWDSLRYYYAN | YKNNRPS | SSRDSMGFQVF | 71 µM | 1 of 3 |
| LGDSLRYYYAN | QKNNRAS | SSRDSSGFQVF | 12 µM | 3 of 3 |
| EADSLIYYYAN | RKNNRPS | SSRDSSGFQVF | 16 µM | 2 of 3 |
| EGDSLRYYYMN | QKNNRPS | SSRDSSGPQVF | nd | 0 of 3 |
| EGDSLVYYYAN | DKNNYPS | SSRDSSGFQVF | 4.8 µM | 3 of 3 |
| EGDSLRYYYAN | LKNNRPS | ISRRSSGFQVF | 110 µM | 1 of 3 |
| EGDSLRYYYAN | RKNNRPS | SSRDSSGFQVF | nd | 0 of 3 |
| EGDSLRYYYAN | IWNNHPS | SSRDSSGFQVF | 1.5 µM | 2 of 3 |
| EGDSLRYYYAN | WKNNQPS | RSRDSSGFQVF | 27 µM | 2 of 3 |
| EGDVLRYYYAN | IKNNRTS | SSRDSSGFQVF | 58 µM | 1 of 3 |
| EGDSLRVYYAN | WKNNRPS | SSRDKSGFQVF | 3.8 µM | 2 of 3 |
| ESDSLRYYYAN | TKNNRPS | SSRDSSGFQVF | 4.8 µM | 2 of 3 |
| EGDSLRYYYFN | VKNNRPV | SSRDSSGFQVF | 15 µM | 2 of 3 |
| EGDSLRYYYAN | YKNNRYS | SSRDSDGFQVF | 170 µM | 1 of 3 |
| EGDSLRYYYAN | NKNNRPS | SSRDSQGFQKF | nd | 0 of 3 |
| EEDSLRYYYAN | WKNNRPS | SSADSSGFQVF | 6.5 µM | 1 of 3 |
| EGDSLRYYYAN | MKNNRPE | SSRDSSGFQVK | 120 µM | 2 of 3 |
| EGSSLRYYYAN | YKNNLPS | SSRDSSGFQVF | 2.2 µM | 2 of 3 |
| EGDSLRYYYAN | NINNRPS | SSRDSSGFQKF | nd | 0 of 3 |
| EGDSLRYYYAN | PKNWRPS | SSRDSSGFGVF | 200 µM | 2 of 3 |
| EGDSLRYYYAN | FKNNRPS | SSRDSSCFQSF | 17 µM | 1 of 3 |
| EGDSLRYYYAN | QKNIRPS | WSRDSSGFQVF | 4.4 µM | 2 of 3 |
| EGDSLRMYYAN | MKNNRPS | SSRDSIGFQVF | 700 nM | 2 of 3 |
| EGDSLRAYYAN | EKNNQPS | SSRDSSGFQVF | 11 µM | 2 of 3 |
| EGDSLRYYYAN | FKNNRPS | ISRDKSGFQVF | 13 µM | 1 of 3 |
| KGDSLRYYMAN | DKNNRPS | SSRDSSGFQVF | 22 nM | 3 of 3 |
| EGDSLRYYYAN | YKWNRPS | SSRDSSFFQVF | nd | 0 of 3 |
| EGDSTRYYYAN | MKNNRPS | SSRDSSGFQVF | 13 µM | 1 of 3 |
| EGDSLRYYYAN | EKNNRPS | SSPDSSGFQVF | 8.1 µM | 2 of 3 |
| EGDSLRYYYAN | KKNNRPF | HSRDSSGFQVF | 220 µM | 1 of 3 |
| EGDSLRYYYAN | RKNNRPS | SSRDHSGNQVF | 32 µM | 3 of 3 |
| EGDSLRNYYVN | EKNNRPS | SSRDSSGFQVF | 6.1 µM | 1 of 3 |
| EDDSLRYYYAN | FKNNRPS | SSRDSSGFQVK | 12 µM | 1 of 3 |
| EGDQLRYYYMN | VKNNRPS | SSRDSSGFQVF | nd | 0 of 3 |
| SGDSLRIYYAN | TKNNRPS | SSRDSSGFQVF | 23 µM | 3 of 3 |
| EGSSLRYPYAN | PKNNRPS | SSRDSSGFQVF | 12 µM | 1 of 3 |
| EGDSLRYYYAN | CKNNRPS | SSRDSSGFEIF | nd | 0 of 3 |
| EGDSLRYYVAN | VKNNRPS | SSRDRSGFQVF | 4.8 µM | 3 of 3 |
| EGDSLRYYYAN | FKNNKPS | SSRDSSGFQVF | 13 µM | 2 of 3 |
| EGDSLRYYYAN | AKNNRPS | SSRLSKGFQVF | 9.2 µM | 2 of 3 |
| EGDSHRDYYAN | AKNNRPS | SSRDSSGFQVF | 6.1 µM | 2 of 3 |
| EGDSLRYYYAN | TKNQRPS | SSRDSSGFQVF | 3.4 µM | 1 of 3 |
| EGDSLRYYYAN | YKNIRPS | SSRDSSGFQFF | 12 µM | 1 of 3 |

Three control strains display no target. For library AAYL52, 28% of the pairings with them gave a signal, with a median of 8.2 µM and one signal in twenty below 800 nM, so weak values seen in few replicates may be background. Parent in this assay: reference entry 200 nM, copy in this library 180 nM.